{
  "source": "patent US8979831B2",
  "about": "(priority 2008, dated 2015)",
  "experiment": "Temperature profile of hydrolysis of ethyl chloroformate in water in hydrophobic gel phantom",
  "conditions": "200 microliters of 0.5M + 200 microliters of water",
  "note": "Values joined by “and” are separate entries in the source; they are usually repeats but may differ in a detail not shown here. Equal values may be shown once.",
  "data": [
    {"smiles": "CCOC(=O)Cl", "values": [
      {"measurement": "Temperature, single run", "setting": "0 sec", "value": "23.2 °C and 23.4 °C and 23.6 °C"},
      {"measurement": "Temperature, single run", "setting": "15 sec", "value": "32 °C and 31.8 °C"},
      {"measurement": "Temperature, single run", "setting": "30 sec", "value": "30.9 °C and 30.2 °C and 30.7 °C"},
      {"measurement": "Temperature, single run", "setting": "45 sec", "value": "29.6 °C and 29.5 °C and 29.8 °C"},
      {"measurement": "Temperature, single run", "setting": "60 sec", "value": "28.2 °C and 29 °C and 29.2 °C"},
      {"measurement": "Temperature, single run", "setting": "75 sec", "value": "28.1 °C and 28.6 °C and 28.4 °C"},
      {"measurement": "Temperature, single run", "setting": "90 sec", "value": "27.6 °C and 28.1 °C and 27.9 °C"},
      {"measurement": "Temperature, single run", "setting": "105 sec", "value": "26.8 °C and 27.6 °C"},
      {"measurement": "Temperature, single run", "setting": "120 sec", "value": "27.1 °C and 27.3 °C"},
      {"measurement": "Temperature, single run", "setting": "135 sec", "value": "26.9 °C and 26.7 °C and 27 °C"},
      {"measurement": "Temperature, single run", "setting": "150 sec", "value": "26.6 °C and 26.7 °C"},
      {"measurement": "Temperature, single run", "setting": "165 sec", "value": "26.3 °C and 26.4 °C"},
      {"measurement": "Temperature, single run", "setting": "180 sec", "value": "26.1 °C and 26.2 °C"},
      {"measurement": "Temperature, single run", "setting": "195 sec", "value": "25.8 °C and 26 °C"},
      {"measurement": "Temperature, single run", "setting": "210 sec", "value": "25.4 °C and 25.9 °C"},
      {"measurement": "Temperature, single run", "setting": "225 sec", "value": "25.4 °C and 25.7 °C and 25.5 °C"},
      {"measurement": "Temperature, single run", "setting": "240 sec", "value": "25.4 °C and 25.5 °C and 25.6 °C"},
      {"measurement": "Temperature, single run", "setting": "255 sec", "value": "25.2 °C and 25.5 °C"},
      {"measurement": "Temperature, single run", "setting": "270 sec", "value": "25.1 °C and 25.4 °C and 25.3 °C"},
      {"measurement": "Temperature, single run", "setting": "285 sec", "value": "25 °C and 25.2 °C"},
      {"measurement": "Temperature, single run", "setting": "300 sec", "value": "24.9 °C and 25 °C and 25.1 °C"}
    ]}
  ]
}
